Most compounds without a hit are left out; they make up all but 2.8% or so of the library.
esBAF inh = Bmi1 luciferase reporter increase in mESCs, primary screen, esBAF inhibitor project, mouse ES cells, Bmi1 luciferase knock-in, single point | 24 h; 100% = twice the neutral-well signal | reporter increase, % at 12.5 µM | 350,000 compounds, 2% hits; in the data active means activation above about 40%;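 further: 0% = median of the plate's neutral control wells and 100% = double that signal; a rise in the Bmi1 reporter signal indicates esBAF inhibition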
PGC1a acetyl inh = inhibitors of PGC1a acetylation signal, primary screen, cell-based, U2OS, AlphaScreen, inhibitor mode; inhibition, % at 15.6 µM; AlphaScreen anti-acetyl-lysine; with virally co-expressed GCN5 acetyltransferase; 350,000 compounds, 0.17% hits;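 active means every replicate shows inhibition of at least 40%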;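 further: 0% = neutral control wells and 100% = positive control wells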
E-selectin induc = E-selectin induction in HUVECs, primary screen, imaging, HUVEC, immunofluorescence imaging, single point; normalized: neutral wells 0, TNF-alpha wells 100; activation, % at 7.58 µM; 260,000 compounds, 0.37% hits; AID 686992, 2013;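 active means mean E-selectin-positive cell signal at least 10% of the positive control, reached in at least 60% of replicates, without over 20% cell loss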
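Assay system: HUVEC primary endothelial cells. Input: 3,000 HUVEC seeded per well. Doses: one compound dose added by pin transfer. Read-out basis: % PE-positive cells. Benchmarks: TNF-alpha high, DMSO low. Detection: immunofluorescence imaging. Buffer or medium: EGM-2, gelatin.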
Yeast UUG start-1 = modulators of yeast start codon fidelity, primary screen, whole organism, S. cerevisiae, single point, plate reader | AID 602363, 2012 | S. cerevisiae UUG-firefly luciferase reporter, luminescence/redox ratio | activity score, % at 18.7 µM | hit rate 0.13% among 350,000;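 active = replicate mean at a twofold rise or more, about +100% in these data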;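 also: firefly luciferase made from a UUG start codon reports start codon fidelity; reporter light over untreated wells divided by growth signal over untreated wells; some hits fall short of that in this replicate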
PglD DTNB = C. jejuni PglD acetyltransferase inhibitors, primary screen, biochemical, DTNB colorimetric, single point | UDP-N-acetylbacillosamine N-acetyltransferase PglD (Campylobacter jejuni) | 360,000 compounds, 0.098% hits | purified PglD enzyme, DTNB colorimetric CoA detection | inhibition, % at 12.5 µM; in the data active means inhibition above about 16%, passing the limit was not always enough
C2C12 statin = suppressors of statin myotoxicity in C2C12 myotubes, primary screen, cell-based, single point, plate reader. C2C12 myotubes + simvastatin, ATP luminescence, 48 h; scaled: DMSO 0, geranylgeraniol control 100. rescue of ATP level, % at 7.49 µM. 330,000 compounds, 0.78% hits;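 active means mean ATP rescue above about 67%, or every replicate alone reaching that limit, limit read from the data, passing the limit was not always enough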;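 further: myotubes were challenged with 10 µM simvastatin during compound exposure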
Yeast UUG start-2 = enhancers of UUG start codon usage in yeast, dose response, S. cerevisiae, UUG firefly luciferase, cherry-pick, set 2; shares compounds with Yeast UUG start-1; luminescence, 4 h; 100% means double the DMSO signal; activation, % at 38 µM; 540 tested, under 10 active;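 active means signal increase whose fitted curve reaches an absolute level of 40 at a concentration under 10 µM; inactive means activity opposite to the expected increase, or the rest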
* marks the source's active call; other numbers are inactive results; i = inactive; . = no result.

SMILES | esBAF inh | PGC1a acetyl inh | E-selectin induc | Yeast UUG start-1 | PglD DTNB | C2C12 statin | Yeast UUG start-2
CN(C)C(=O)C[C@H]1C[C@@H]2c3cc(NC(=O)Nc4ccccc4F)ccc3O[C@@H]2[C@@H](CO)O1 | 3.0 | 1.6 | -0.2 | -0.6 | -2.7 | -9.0 | .
CN(C)CC(=O)Nc1ccc2c(c1)[C@@H]1C[C@@H](CC(=O)NCc3cccc(F)c3)O[C@H](CO)[C@@H]1O2 | -2.0 | 2.5 | 0.1 | 5.0 | 0.6 | 9.7 | .
CN(C)CC(=O)Nc1ccc2c(c1)[C@@H]1C[C@@H](CC(=O)NCc3cccc(F)c3)O[C@@H](CO)[C@@H]1O2 | 1.2 | -7.9 | 0.3 | 54.5* | -0.7 | -0.5 | i
CN(C)C(=O)C[C@@H]1C[C@H]2c3cc(NC(=O)Nc4ccccc4F)ccc3O[C@H]2[C@H](CO)O1 | 0.5 | 5.1 | -0.1 | 47.2* | -0.5 | 7.5 | i
CN(C)C(=O)C[C@@H]1C[C@@H]2c3cc(NC(=O)Nc4ccccc4F)ccc3O[C@@H]2[C@@H](CO)O1 | 2.6 | -2.6 | -0.1 | 126.9* | -5.3 | -0.5 | i
C[C@H]1CN([C@@H](C)CO)C(=O)CCCn2cc(nn2)CO[C@H]1CN(C)Cc1ccc(C(=O)O)cc1 | . | 9.3 | 0.0 | . | . | . | .
CC(C)(C)C(=O)COC(=O)c1ccc(O)cc1 | 7.5 | . | . | 387.0* | -0.2 | -10.6 | 20.1
O=C(Nc1ccccc1C(F)(F)F)c1ccsc1 | -6.1 | . | . | 4.9 | -1.0 | 4.5 | .
O=C(NNc1ccccc1C(F)(F)F)c1sccc1Br | -0.7 | 4.8 | . | active | -5.3 | 5.3 | -4.3
Cc1ccc(S(=O)(=O)N[C@@H]2CC[C@@H](CC(=O)N3CCN(c4ccccc4)CC3)O[C@@H]2CO)cc1 | 9.7 | -2.0 | -2.0 | 6.4 | -0.1 | -0.6 | .
Cc1cc[n+](C2=C([O-])c3ccccc3C(=O)/C2=N\S(=O)(=O)c2cccs2)cc1C | 8.5 | 6.9 | . | 446.3* | -2.4 | 8.0 | 0.0
O=C1/C(=N\S(=O)(=O)c2cccs2)C([n+]2cccc(Cc3ccccc3)c2)=C([O-])c2ccccc21 | . | -3.6 | . | -11.7 | -4.4 | . | .
COc1ccc(Nc2nc3ccccc3n2C)cc1 | -7.1 | 12.5 | . | 0.1 | 4.1 | -2.7 | -12.8
C[C@H]1CN([C@@H](C)CO)C(=O)c2cc(NC(=O)Cc3ccccc3)ccc2O[C@H]1CN(C)S(=O)(=O)c1cccs1 | 1.1 | -2.5 | -12.0 | . | -1.0 | 3.0 | .
Nc1c(-c2ccccc2)nc(Cl)nc1-c1ccccc1 | -5.5 | -11.1 | . | 133.0* | -5.5 | 7.6 | 1.3
CO[C@H]1CN(C)C(=O)c2ccc(NC(=O)C3CCOCC3)cc2OC[C@@H](C)N(Cc2cccnc2)C[C@@H]1C | 1.9 | -4.4 | -0.2 | -0.5 | 1.7 | 0.2 | .
COc1ccc(CCNS(=O)(=O)c2cccc(S(=O)(=O)N3CCCC3)c2)cc1OC | 1.0 | -10.8 | . | 13.8 | 11.3 | 13.3 | .
COc1ccc(CCNS(=O)(=O)c2ccc3c(c2)CCCC3)cc1OC | 4.2 | -1.9 | . | -4.6 | -2.6 | 7.7 | .
COc1ccc(S(=O)(=O)NCCc2ccccc2)cc1 | 6.5 | -2.9 | . | 10.2 | -0.2 | -6.6 | -0.2
COc1ccc(CCNS(=O)(=O)c2cccc(F)c2)cc1OC | 4.9 | . | . | 0.1 | -1.4 | 30.3 | 1.0
COc1ccc(CCNS(=O)(=O)c2ccc(Br)cc2)cc1 | 7.0 | . | . | -10.7 | 5.9 | 11.5 | .
COc1ccc(S(=O)(=O)NCCc2ccc(OC)c(OC)c2)cc1Cl | . | . | . | . | . | . | i
COc1ccc(CCNS(=O)(=O)c2cnc(Cl)c(Br)c2)cc1OC | . | 14.4 | . | -10.8 | -9.6 | . | .
COc1ccc(CCNS(=O)(=O)c2cccc(C)c2)cc1OC | -0.3 | 5.9 | . | -7.1 | -7.7 | 25.3 | 8.5
Cc1noc(C)c1S(=O)(=O)Nc1ccc2c(c1)C(=O)N([C@@H](C)CO)C[C@@H](C)[C@H](CN(C)C(=O)NC1CCCCC1)OCCCC[C@@H](C)O2 | 6.1 | . | -0.2 | -0.2 | -1.2 | 31.9 | .
Cc1ccc(S(=O)(=O)N(C)C[C@H]2Oc3ccc(NS(=O)(=O)c4cn(C)cn4)cc3CC(=O)N([C@H](C)CO)C[C@H]2C)cc1 | 3.1 | -3.7 | 0.2 | . | . | -15.5 | .
COc1ccc(S(=O)(=O)N(C)C[C@H]2Oc3ccc(NC(=O)Nc4ccc5c(c4)OCO5)cc3C(=O)N([C@H](C)CO)C[C@H]2C)cc1 | -3.7 | -5.8 | 9.6 | -25.2 | -0.9 | . | .
C[C@H](CO)N1C[C@H](C)[C@H](CN(C)C(=O)Nc2ccccc2)Oc2c(NS(C)(=O)=O)cccc2C1=O | 2.6 | -3.4 | -23.2 | -6.8 | -1.0 | 39.9 | .
COc1ccc(CCNS(=O)(=O)c2ccc3c(c2)OCCO3)cc1OC | . | . | . | . | . | . | -3.1
O=C(COC(=O)c1cc2ccccc2o1)c1ccccc1 | -1.7 | 4.1 | . | -4.5 | 2.2 | 5.6 | 9.8
Cc1c(Cl)cccc1N1C(=O)CC(NNC(=O)c2cccnc2)C1=O (stereo not drawn) | . | 24.0 | -1.2 | -34.6 | 2.0 | . | .
Cc1c(Cl)cccc1N1C(=O)CC(NNC(=O)c2cccs2)C1=O (stereo not drawn) | -1.8 | -3.4 | 0.9 | 646.5* | 4.7 | -0.2 | -7.5
C[C@@H]1CN([C@@H](C)CO)S(=O)(=O)c2ccc(-c3cccc(C#N)c3)cc2O[C@H]1CN(C)Cc1cccc(F)c1 | -10.1 | -11.4 | 0.2 | 22.3 | 0.6 | -183.1 | .
COc1ccc(C(=O)c2cnc[nH]2)cc1 | . | 5.2 | . | 171.2* | -2.1 | . | 5.7
COc1ccc(C(=O)c2cnc[nH]2)cc1OC | -3.7 | 1.3 | 0.4 | -19.9 | -12.4 | -14.3 | .
C[C@@H]1CN([C@@H](C)CO)C(=O)Cc2cc(NC(=O)C3CCCCC3)ccc2O[C@H]1CN(C)C(=O)NC1CCCCC1 | 3.0 | -4.5 | 9.7 | 46.6* | 4.3 | -6.5 | i
COc1ccc2c3c(n(C)c2c1)[C@H](CO)N(C(=O)Cc1ccccc1)CC31CN(C(C)=O)C1 | . | 1.1 | -0.1 | . | . | . | .
C[C@H](CO)N1C[C@H](C)[C@@H](CN(C)Cc2cncnc2)Oc2ncc(/C=C/c3ccccc3)cc2C1=O | -5.8 | 8.9 | -0.1 | 249.8* | 2.7 | -55.9 | i
C[C@@H]1CN([C@@H](C)CO)C(=O)c2cc(-c3cccnc3)cnc2O[C@H]1CN(C)C(=O)c1ccccc1F | -4.0 | -0.7 | 0.5 | 166.1* | -2.5 | -2.4 | i

High-throughput results deposited in PubChem BioAssay by Broad Institute.
